# Results from US20220183972A1, “NANOEMULSION HYDROPHOBIC […]” (VERTOSA INC., priority 2018, published 2022).
# Test: Emulsion droplet size by DLS, Polyglyceryl-4 main surfactants
# Assay type: physicochemical
# Details: 1 g cannabinoid oil, 0.7 g olive oil, 2.5 g Polyglyceryl-4 surfactant, 1.5 g sunflower lecithin, 40 g water, 80% amplitude
substance,measurement,value
Polyglyceryl-4 Laurate,final emulsion droplet average size,488 nm
